Molecular target: T1, GIRK1/4 channel (Rattus norvegicus, UniProt P48548+P63251)
T1 construct: expressed in transfected cells; host or cells: Xenopus laevis oocytes (cRNA injection)
T1 sequence (P63251 1-501): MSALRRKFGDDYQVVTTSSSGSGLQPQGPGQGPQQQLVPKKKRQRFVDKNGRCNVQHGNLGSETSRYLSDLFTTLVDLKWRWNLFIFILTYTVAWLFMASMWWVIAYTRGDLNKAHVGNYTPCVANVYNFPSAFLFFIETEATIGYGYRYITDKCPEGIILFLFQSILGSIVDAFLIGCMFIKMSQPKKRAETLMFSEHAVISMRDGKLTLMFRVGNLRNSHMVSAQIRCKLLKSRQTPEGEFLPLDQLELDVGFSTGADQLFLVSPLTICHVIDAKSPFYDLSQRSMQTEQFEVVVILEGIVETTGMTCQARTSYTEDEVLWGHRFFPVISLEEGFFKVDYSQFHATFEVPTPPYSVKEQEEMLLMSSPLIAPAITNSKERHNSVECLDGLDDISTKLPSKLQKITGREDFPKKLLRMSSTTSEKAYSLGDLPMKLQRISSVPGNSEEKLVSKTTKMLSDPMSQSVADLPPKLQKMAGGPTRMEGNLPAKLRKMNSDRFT
T1 sequence (P48548 1-419): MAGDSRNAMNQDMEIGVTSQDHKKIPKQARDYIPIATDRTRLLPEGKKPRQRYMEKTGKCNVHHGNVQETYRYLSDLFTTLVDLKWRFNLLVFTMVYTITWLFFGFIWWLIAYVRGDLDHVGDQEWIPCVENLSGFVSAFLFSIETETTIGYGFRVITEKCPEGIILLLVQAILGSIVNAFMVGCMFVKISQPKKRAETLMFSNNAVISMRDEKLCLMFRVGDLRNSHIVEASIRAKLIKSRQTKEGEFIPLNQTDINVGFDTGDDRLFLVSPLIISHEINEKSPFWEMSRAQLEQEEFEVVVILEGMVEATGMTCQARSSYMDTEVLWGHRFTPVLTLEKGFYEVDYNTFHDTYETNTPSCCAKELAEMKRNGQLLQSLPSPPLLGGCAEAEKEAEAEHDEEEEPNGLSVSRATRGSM
Assay: cell-based
Format: cell-based

## CC[C@H](C)[C@@H]1NC(=O)[C@H](CCCNC(=N)N)NC(=O)[C@H](CC(N)=O)NC(=O)[C@@H]2CSSC[C@@H](C(=O)NCC(=O)N[C@@H](CCCCN)C(=O)N[C@@H](CCCCN)C(N)=O)NC(=O)[C@H](CCCCN)NC(=O)[C@H](CCCCN)NC(=O)[C@H](Cc3c[nH]c4ccccc34)NC(=O)[C@H](CSSC[C@H](NC(=O)[C@H](CC(C)C)NC(=O)[C@H](C)N)C(=O)N[C@@H](CC(N)=O)C(=O)N2)NC(=O)[C@H](CCSC)NC(=O)[C@H](Cc2c[nH]cn2)NC(=O)[C@@H]2CCCN2C(=O)[C@H]([C@@H](C)CC)NC(=O)[C@H]([C@@H](C)CC)NC1=O [tertiapin]
  effect on / sensitivity of the GIRK1/4 channel, in words: highly sensitive
Tertiapin and TPNQ at similar concentrations
  fraction of current through the GIRK1/4 channel inhibited: about half

— patent publication US6979572B1, “Compositions and methods for inhibiting inward-rectifier potassium channels” (Trustees of the University of Pennsylvania, priority 1998, dated 2005)
